Source: patent publication US10118966B2, “Anti-EGFR monoclonal antibody, methods of making, and uses thereof in the treatment of cancer” (Shanghai Biomabs Pharmaceuticals Co., Ltd., priority 2015, dated 2018)

Key:
[1] = tested on: patients with relapse of advanced cancers; assay: Clinical tolerance study of CMAB009 mAb (Example 7); format: in vivo, human
subjects = assay: CMAB009 clinical safety, 73 subjects (Example 8); format: in vivo, human
ADA = assay: Fortebio Octet immunogenicity analysis: ADA in clinical serum samples; set-up: species or system human
From the text: In this study, the biosensors made with biofilm interference technology and optical fibers were employed, in which the bottom was covered with SA ligands conjugated with biomolecule compatible layers. Once the captured biotinylated antibody is bound to the ligands, the biofilm thickness increases, reflected light interference spectral curve drift a measurable distance, thereby enabling real-time measurement of intermolecular interactions. This method is equivalent to the self-assembly process of the captured antibodies, which formed a range of optimal conformations at a certain density for capturing antibody on the surface of the biosensor, which not only improves the analytical sensitivity but also increases the linear range, which helps reduce the false-positive reactions from non-specific binding.

[2] = Clinical studies, summary statements; format: in vivo, human
From the text: Based on this, we designed and selected CHO expression system and successfully prepared genetically engineered anti-EGFR antibody (CMAB009 mAb) with different glycan structures.

CMAB009: cetuximab antibody produced in a CHO cell; light chain SEQ ID NO: 2, heavy chain SEQ ID NO: 4; no NGNA or Gal-α(1,3)-Gal glycan
dose-limiting toxicity ([1]; 18 subjects): No dose-limiting toxicity was observed | drug-related hypersensitivity ([1]; 18 subjects): no drug-related hypersensitivity was observed; also recorded: no CMAB009 antibody related hypersensitivity observed | grade III-IV drug-related toxicity ([1]; 18 subjects): no grade III-IV drug-related toxicity | clinical tolerance ([1]; 18 subjects, 100-400 mg/m^2 intravenous, single and multiple dose): well tolerated | Acne-like rash, % ([1]; N = 18): 61.1% | Acne-like rash, CTC Grade I, no. events ([1]; N = 18): 10 | Acne-like rash, CTC Grade III-IV, no. events ([1]; N = 18): 0 | Acne-like rash, Total no. events ([1]; N = 18): 11 | Fatgue/malaise, % ([1]; N = 18): 5.6% | Fatgue/malaise, CTC Grade II, no. events ([1]; N = 18): 0 | Fatgue/malaise, CTC Grade III-IV, no. events ([1]; N = 18): 0 | Fever chills, % ([1]; N = 18): 55.6% | Fever chills, CTC Grade I, no. events ([1]; N = 18): 6 | Fever chills, CTC Grade II, no. events ([1]; N = 18): 4 | Fever chills, CTC Grade III-IV, no. events ([1]; N = 18): 0 | Fever chills, Total no. events ([1]; N = 18): 10 | Headache, % ([1]; N = 18): 16.7% | Headache, CTC Grade I, no. events ([1]; N = 18): 3 | Headache, CTC Grade II, no. events ([1]; N = 18): 0 | Headache, CTC Grade III-IV, no. events ([1]; N = 18): 0 | Headache, Total no. events ([1]; N = 18): 3 | Nasal discharge, % ([1]; N = 18): 5.6% | Nasal discharge, CTC Grade II, no. events ([1]; N = 18): 0 | Nasal discharge, CTC Grade III-IV, no. events ([1]; N = 18): 0 | Nausea/vomiting, % ([1]; N = 18): 27.8% | Nausea/vomiting, CTC Grade I, no. events ([1]; N = 18): 5 | Nausea/vomiting, CTC Grade II, no. events ([1]; N = 18): 0 | Nausea/vomiting, CTC Grade III-IV, no. events ([1]; N = 18): 0 | Nausea/vomiting, Total no. events ([1]; N = 18): 5 | Transaminase elevation, % ([1]; N = 18): 5.6% | Transaminase elevation, CTC Grade II, no. events ([1]; N = 18): 0 | Transaminase elevation, CTC Grade III-IV, no. events ([1]; N = 18): 0 | paronychia, % ([1]; N = 18): 5.6% | paronychia, CTC Grade II, no. events ([1]; N = 18): 0 | paronychia, CTC Grade III-IV, no. events ([1]; N = 18): 0 | clinically significant new toxicity (subjects; 73 subjects): no clinically significant new toxicity observed | severe hypersensitivity (subjects; among the 73 subjects): no was severe hypersensitivity observed; also recorded: no severe hypersensitivity reactions observed | subjects with ADA detected (ADA; 1/73): 1.4% | potentially positive subjects by cut point value analysis (ADA) (ADA; in 73 subjects): 3 subjects | ADA subtype (ADA; subtype analysis): IgG type | IgE specific ADA [2]: no IgE specific ADA detected | drug-related hypersensitivity [2]: no drug-related hypersensitivity observed | pharmacokinetic parameters ([2]; compared with Erbitux®): consistent with those of Erbitux®

Entries after “also recorded” stand apart in the source; their conditions may differ.
